Legend:
[1] = tested on: patients with recurrent or metastatic HNSCC; experiment: adverse events graded by NCI-CTCAE version 4.0, all cycles of treatment; settings: ten patients
[2] = tested on: recurrent or metastatic HNSCC; settings: cetuximab monotherapy, platinum-resistant HNSCC; 95% CI 7–21; cited from earlier work

## cetuximab
[1]
  paronychia attributable to cetuximab, patients: 32%
[2]
  overall tumour response: 13%
